Data published in patent US9428553B2, “Meditopes and meditope-binding antibodies and uses thereof” (City of Hope, priority 2012, dated 2016).

Columns and labels:
[1] = in vivo
[2] = tested on: cQFD meditope; assay: SPR, antibodies over cQFD meditope-conjugated CM5 chip; type: binding; settings: 0.01, 0.05, 0.1, 0.5 and 1 μM antibody

| binding to the meditope-conjugated chip [2] | Substance | biodistribution [1] |
| --- | --- | --- |
|  | meditope-enabled trastuzumab: trastuzumab mutated at framework residues to contain the cetuximab meditope binding site (SEQ ID NOs: 6 and 9) | indistinguishable |
| No binding | trastuzumab: humanized monoclonal antibody that binds to ErbB2 |  |
